Reference: patent US20110245496A1, “Quinazoline Salt Compounds” (priority 2007, published 2011)

Experiment: Salt solubility measurement in water
Details: stirred at ambient temperature 18-20 hours, filtered, hplc assay

CS(=O)(=O)CCNCc1ccc(-c2ccc3ncnc(Nc4ccc(OCc5cccc(F)c5)c(Cl)c4)c3c2)o1.CS(=O)(=O)CCNCc1ccc(-c2ccc3ncnc(Nc4ccc(OCc5cccc(F)c5)c(Cl)c4)c3c2)o1.O=S(=O)(O)CCS(=O)(=O)O
Solubility as free base: 7 µg/mL | Solubility as salt: 9 µg/mL
